## Permeability data for macrocyclic peptides

PAMPA measures passive passage through an artificial lipid membrane.
P is given in units of 10^-6 cm/s (from log10 values with two decimals); larger means faster passage.

| PAMPA (10^-6 cm/s) | SMILES |
|---|---|
| 1.2 | CC(C)C[C@@H]1NC(=O)[C@@H]2CCCN2C(=O)[C@H](CC(C)C)N(C)C(=O)[C@H](CC(C)C)NC(=O)[C@H](C)N(C)C(=O)[C@@H]2CCCN2C(=O)[C@H](Cc2ccccc2)NC1=O |
| 0.23 | CC(C)C[C@@H]1NC(=O)[C@H]2CCCN2C(=O)[C@@H](CC(C)C)NC(=O)[C@@H](CC(C)C)N(C)C(=O)[C@@H](C)N(C)C(=O)[C@H]2CCCN2C(=O)[C@H](Cc2ccccc2)NC1=O |
| 1.9 | CC(C)C[C@@H]1NC(=O)[C@H]2CCCN2C(=O)CN(Cc2ccccc2)C(=O)[C@H](CC(C)C)NC(=O)[C@@H](C)N(C)C(=O)[C@@H]2CCCN2C(=O)[C@H](Cc2ccccc2)NC1=O |
| 0.98 | CC(C)C[C@@H]1NC(=O)[C@@H](C)NC(=O)[C@H]2CCCN2C(=O)[C@H](Cc2ccccc2)NC(=O)[C@@H](CC(C)C)NC(=O)[C@H]2CCCN2C(=O)[C@@H](CC(C)C)NC1=O |
| 4 | CCCN1CC(=O)N(C)[C@@H](CC(C)C)C(=O)N(C)[C@H](CC(C)C)C(=O)N2CCC[C@@H]2C(=O)N(Cc2ccccc2)CC(=O)N[C@@H](Cc2ccccc2)C(=O)N2CCC[C@H]2C1=O |
| 0.45 | CC(C)C[C@@H]1NC(=O)[C@H]2CCCN2C(=O)CN(Cc2ccccc2)C(=O)[C@H](CC(C)C)N(C)C(=O)[C@@H](C)N(C)C(=O)[C@H]2CCCN2C(=O)[C@H](Cc2ccccc2)NC1=O |
| 0.95 | CC(C)C[C@H]1NC(=O)[C@H](C)NC(=O)[C@H]2CCCN2C(=O)[C@H](Cc2ccccc2)NC(=O)CN(Cc2ccccc2)C(=O)[C@@H]2CCCN2C(=O)[C@H](CC(C)C)N(C)C1=O |
| 14 | CCCN1CC(=O)N(C)[C@H](CC(C)C)C(=O)N(C)[C@H](CC(C)C)C(=O)N2CCC[C@@H]2C(=O)N(C)[C@@H](CC(C)C)C(=O)N[C@@H](Cc2ccccc2)C(=O)N2CCC[C@@H]2C1=O |
| 0.98 | CCCN1CC(=O)N[C@H](CC(C)C)C(=O)N(Cc2ccccc2)CC(=O)N2CCC[C@H]2C(=O)N[C@@H](CC(C)C)C(=O)N[C@@H](Cc2ccccc2)C(=O)N2CCC[C@H]2C1=O |
| 1.9 | CC(C)C[C@H]1C(=O)N[C@@H](Cc2ccccc2)C(=O)N2CCC[C@H]2C(=O)N[C@@H](Cc2ccccc2)CC(=O)N(Cc2ccccc2)CC(=O)N[C@@H](Cc2ccccc2)CC(=O)N2CCC[C@@H]2C(=O)N1C |
| 2.3 | CC(C)C[C@@H]1C(=O)N(C)[C@H](CC(C)C)C(=O)N2CCC[C@H]2C(=O)N(C)[C@@H](CC(C)C)C(=O)N[C@@H](Cc2ccccc2)C(=O)N2CCC[C@H]2C(=O)N[C@@H](C)C(=O)N1C |
| 5.2 | CC(C)C[C@@H]1NC(=O)C[C@H](Cc2ccccc2)NC(=O)[C@@H]2CCCN2C(=O)[C@H](Cc2ccccc2)NC(=O)[C@H](CC(C)C)N(C)C(=O)[C@@H]2CCCN2C(=O)[C@H](CC(C)C)N(C)C1=O |
| 1 | CCCN1CC(=O)N[C@@H](CC(C)C)C(=O)N[C@@H](CC(C)C)C(=O)N2CCC[C@H]2C(=O)N[C@@H](CC(C)C)C(=O)N[C@@H](Cc2ccccc2)C(=O)N2CCC[C@H]2C1=O |
| 1.8 | CC(C)C[C@@H]1C(=O)N2CCC[C@H]2C(=O)N(C)[C@H](CC(C)C)C(=O)N[C@@H](Cc2ccccc2)C(=O)N2CCC[C@@H]2C(=O)N(C)[C@H](C)C(=O)N(Cc2ccccc2)CC(=O)N1C |
| 0.81 | CC(C)C[C@@H]1NC(=O)[C@H]2CCCN2C(=O)[C@H](CC(C)C)NC(=O)[C@@H](CC(C)C)N(C)C(=O)[C@H](C)N(C)C(=O)[C@H]2CCCN2C(=O)[C@H](Cc2ccccc2)NC1=O |
| 8.9 | CC(C)C[C@H]1NC(=O)[C@H](CC(C)C)N(C)C(=O)[C@@H](C)N(C)C(=O)[C@@H]2CCCN2C(=O)[C@H](Cc2ccccc2)NC(=O)[C@H](CC(C)C)N(C)C(=O)[C@H]2CCCN2C1=O |
| 1.9 | CC(C)C[C@@H]1C(=O)N[C@@H](Cc2ccccc2)C(=O)N2CCC[C@H]2C(=O)N[C@@H](Cc2ccccc2)CC(=O)N(C)[C@@H](CC(C)C)C(=O)N[C@@H](Cc2ccccc2)CC(=O)N2CCC[C@@H]2C(=O)N1C |
| 5.4 | CC(C)C[C@@H]1C(=O)N(C)[C@@H](CC(C)C)C(=O)N2CCC[C@H]2C(=O)N(Cc2ccccc2)CC(=O)N[C@@H](Cc2ccccc2)C(=O)N2CCC[C@@H]2C(=O)N(C)[C@@H](C)C(=O)N1C |
| 7.9 | CC(C)C[C@H]1C(=O)N[C@@H](Cc2ccccc2)C(=O)N2CCC[C@@H]2C(=O)N[C@H](C)C(=O)N(Cc2ccccc2)CC(=O)N[C@@H](Cc2ccccc2)CC(=O)N2CCC[C@H]2C(=O)N1C |
| 1.9 | CC(C)C[C@H]1C(=O)N(C)[C@@H](CC(C)C)C(=O)N2CCC[C@@H]2C(=O)N(Cc2ccccc2)CC(=O)N[C@@H](Cc2ccccc2)C(=O)N2CCC[C@@H]2C(=O)N(C)[C@H](C)C(=O)N1C |
| 4.2 | CC(C)C[C@@H]1C(=O)N[C@@H](Cc2ccccc2)CC(=O)N2CCC[C@H]2C(=O)N(C)[C@H](CC(C)C)C(=O)N[C@@H](Cc2ccccc2)C(=O)N(C)[C@@H](C)C(=O)N1C |
| 1.4 | CC(C)C[C@@H]1C(=O)N[C@@H](Cc2ccccc2)CC(=O)N2CCC[C@@H]2C(=O)N[C@H](CC(C)C)C(=O)N[C@@H](Cc2ccccc2)C(=O)N2CCC[C@@H]2C(=O)N[C@@H](Cc2ccccc2)CC(=O)N1C |
| 2.5 | CC(C)C[C@H]1NC(=O)CN(Cc2ccccc2)C(=O)C[C@H](Cc2ccccc2)NC(=O)[C@@H]2CCCN2C(=O)[C@H](Cc2ccccc2)NC(=O)[C@H](CC(C)C)N(C)C(=O)[C@H]2CCCN2C1=O |
| 3.4 | CC(C)C[C@@H]1NC(=O)[C@H](C)N(C)C(=O)[C@@H]2CCCN2C(=O)[C@H](Cc2ccccc2)NC(=O)[C@H](CC(C)C)N(C)C(=O)[C@H]2CCCN2C(=O)[C@@H](CC(C)C)NC1=O |

Again, the 2 entries with the lowest PAMPA:

{"smiles": "CC(C)C[C@@H]1NC(=O)[C@H]2CCCN2C(=O)[C@@H](CC(C)C)NC(=O)[C@@H](CC(C)C)N(C)C(=O)[C@@H](C)N(C)C(=O)[C@H]2CCCN2C(=O)[C@H](Cc2ccccc2)NC1=O", "PAMPA (10^-6 cm/s)": "0.23"}
{"smiles": "CC(C)C[C@@H]1NC(=O)[C@H]2CCCN2C(=O)CN(Cc2ccccc2)C(=O)[C@H](CC(C)C)N(C)C(=O)[C@@H](C)N(C)C(=O)[C@H]2CCCN2C(=O)[C@H](Cc2ccccc2)NC1=O", "PAMPA (10^-6 cm/s)": "0.45"}

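Conditions beyond the assay type are not listed; see the original paper. Other peptides of the study may be missing here. Entries at the database's floor value (log10 P of -10) are not listed.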

Values of Townsend et al. 2020, doi:10.26434/chemrxiv.13335941.v1, as listed in CycPeptMPDB.